# Apparent affinities of Ab-14 variants for a coronavirus HR2 peptide

Source: Engelhart et al. 2022 (doi:10.1038/s41597-022-01779-4), MIT Lincoln Laboratory and A-Alpha Bio; data file from the FLAb repository.

Binding partner: SARS-CoV-2 spike HR2 peptide, sequence PDVDLGDISGINAS.

Parent scFv Ab-14: VH joined to VL by a 15-residue (Gly4Ser)3 linker. Changes lie in the heavy chain CDRs alone.
VH: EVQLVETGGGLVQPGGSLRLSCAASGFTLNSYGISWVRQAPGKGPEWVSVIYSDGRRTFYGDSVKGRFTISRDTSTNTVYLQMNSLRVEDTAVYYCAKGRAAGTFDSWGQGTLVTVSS
VL: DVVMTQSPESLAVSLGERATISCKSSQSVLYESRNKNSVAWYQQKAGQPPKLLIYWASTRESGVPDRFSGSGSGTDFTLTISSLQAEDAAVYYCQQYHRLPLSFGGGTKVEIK

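The starting antibody came from a phage panning campaign against this peptide. The library (AAYL49) carries one to three amino acid substitutions per variant, with no insertions or deletions. Affinity was read by AlphaSeq, a pooled yeast mating assay with surface-displayed partners. Binding brings cells together so that they mate, and sequencing counts the barcode pairs among the diploids. The ratio of observed to expected reads was calibrated, replicate by replicate, on BCL2-family standards whose Kd was known from biolayer interferometry. The assay was run in three technical replicates.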

Positions count from residue 1 of the parent VH; G26S puts S in place of G. Scale: log10 of Kd in nM, estimated from mating counts; low values are strong binders. A mean of the replicates is given; it leaves out those without a signal. Where no diploid with the target was found in that replicate, the entry reads "n.d.": below detection, most likely a poor binder, though not proof of it. Empty control strains, which show no peptide, gave a signal in 15% of pairings with library AAYL49; the median was 4.06 and 95% of these signals were weaker than 2.83. No background was subtracted. Also given: how often the same scFv was detected with the empty control strains, with their mean in brackets. In this assay the parent's reference entry averaged 0.65; its copy inside this library read 4.11 (one replicate of three).

changes,log10 Kd (nM) by replicate,"log10 Kd (nM), mean",control signals
G26S+S31W+Y60R,n.d. / n.d. / n.d.,n.d.,0 of 9
V50Q+Y60M+G61N,4.41 / 4.11 / n.d.,4.26,4 of 9 (4.66)
Y32N+I34W+R100N,n.d. / n.d. / n.d.,n.d.,1 of 9 (3.21)
F27L+V64N+F105A,n.d. / n.d. / n.d.,n.d.,4 of 9 (4.06)
T58S+D62L+F105C,4.53 / 5.30 / n.d.,4.91,7 of 9 (4.16)
L29G+G55D+A102N,n.d. / 4.70 / n.d.,4.70,1 of 9 (3.14)
N30C,4.18 / 4.02 / n.d.,4.10,4 of 9 (3.66)
Y60G+G103P+D106L,n.d. / n.d. / n.d.,n.d.,3 of 9 (3.90)
Y52M+D62L+K65V,n.d. / n.d. / n.d.,n.d.,0 of 9
F59T+V64R,n.d. / 3.10 / n.d.,3.10,0 of 9
S31M+S63L+S107Y,n.d. / n.d. / n.d.,n.d.,0 of 9
T28R+D62W+A102D,n.d. / n.d. / n.d.,n.d.,1 of 9 (2.60)
F59C+Y60P+G99N,n.d. / n.d. / n.d.,n.d.,1 of 9 (2.33)
G55R+F59D+K65H,5.72 / 3.92 / 4.25,4.63,8 of 9 (4.75)
T28A+R100I+T104R,1.41 / 1.67 / 1.70,1.59,2 of 9 (4.22)
N30Y+I51P,n.d. / n.d. / n.d.,n.d.,0 of 9
T28M+I34L,3.15 / 2.68 / 2.53,2.79,2 of 9 (3.75)
S53R+G103V+S107G,n.d. / n.d. / n.d.,n.d.,0 of 9
S35M+T58D+D106V,5.40 / n.d. / 4.48,4.94,1 of 9 (3.01)
Y52G+R57C+A102M,3.89 / n.d. / n.d.,3.89,0 of 9
G26P+G33E+T58F,4.03 / n.d. / n.d.,4.03,4 of 9 (4.18)
S31K+F59P+D106A,n.d. / n.d. / n.d.,n.d.,0 of 9
G55A+G61Q+S63Y,n.d. / 2.20 / 4.43,3.31,1 of 9 (2.58)
A101Q+A102F+S107H,n.d. / n.d. / n.d.,n.d.,0 of 9
L29G+V50H+D54Y,3.58 / n.d. / n.d.,3.58,3 of 9 (4.27)
G55C+G61K+D106A,n.d. / n.d. / n.d.,n.d.,0 of 9
N30V+S35N+Y52V,n.d. / n.d. / n.d.,n.d.,0 of 9
T28P+S35P+R56L,n.d. / n.d. / n.d.,n.d.,0 of 9
D62G+K65A+A101Y,1.90 / 1.91 / 2.01,1.94,2 of 9 (4.92)
S63F+K65V+D106T,n.d. / n.d. / n.d.,n.d.,0 of 9
S35L+T58W+Y60F,n.d. / 2.55 / n.d.,2.55,0 of 9
G33N+T58A+S63V,5.30 / n.d. / n.d.,5.30,5 of 9 (4.45)
S53Q+G61Y+D62H,n.d. / n.d. / n.d.,n.d.,1 of 9 (3.40)
G33P+R56L+A101P,n.d. / 4.10 / n.d.,4.10,3 of 9 (3.98)
S53V+R57G+G61E,n.d. / 3.30 / n.d.,3.30,0 of 9
V50L+I51H,n.d. / n.d. / n.d.,n.d.,0 of 9
Y32S+Y52M+D62A,5.08 / n.d. / n.d.,5.08,2 of 9 (3.10)
F27E+N30A+S63V,3.05 / 3.44 / 3.27,3.26,2 of 9 (3.45)
N30H+G61W+S63I,n.d. / n.d. / n.d.,n.d.,0 of 9
Y32C+R100T+T104D,3.12 / 3.67 / 3.31,3.37,1 of 9 (3.46)
I51E+R56L+G103F,n.d. / n.d. / n.d.,n.d.,2 of 9 (3.62)
L29Y+T58P+R100F,n.d. / n.d. / n.d.,n.d.,1 of 9 (3.21)
T28F+G61S+A102V,n.d. / n.d. / n.d.,n.d.,3 of 9 (4.15)
S31R+S53I+D54K,n.d. / n.d. / n.d.,n.d.,0 of 9
Y52M+R57F+F59S,n.d. / n.d. / n.d.,n.d.,0 of 9
R57E+A102K+S107P,n.d. / n.d. / n.d.,n.d.,0 of 9
L29R+N30G+G55K,3.83 / n.d. / n.d.,3.83,0 of 9
I51T+S63Q+K65E,n.d. / n.d. / n.d.,n.d.,0 of 9
N30S+D106E,0.13 / 0.44 / 0.21,0.26,1 of 9 (2.12)

A selection of 5 entries from above:

| changes | log10 Kd (nM) by replicate | log10 Kd (nM), mean | control signals |
|---|---|---|---|
| T28M+I34L | 3.15 / 2.68 / 2.53 | 2.79 | 2 of 9 (3.75) |
| T58S+D62L+F105C | 4.53 / 5.30 / n.d. | 4.91 | 7 of 9 (4.16) |
| G55A+G61Q+S63Y | n.d. / 2.20 / 4.43 | 3.31 | 1 of 9 (2.58) |
| N30H+G61W+S63I | n.d. / n.d. / n.d. | n.d. | 0 of 9 |
| A101Q+A102F+S107H | n.d. / n.d. / n.d. | n.d. | 0 of 9 |